{"source": "patent US9375434B2", "about": "“Antitumor effect potentiator composed of imidazooxazine compound” (Taiho Pharmaceutical Co., Ltd., priority 2012, dated 2016)", "key": {"[1]": {"tested_on": "Human stomach cancer cell line (4-1ST)", "test": "Potentiation of effect of trastuzumab (Herceptin), 4-1ST subcutaneous implant in nude mice (Test Example 11)", "format": "in vivo, BALB/cA Jcl-nu/nu mice", "details": "Herceptin 20 mg/kg/day, Day 1, 8, i.p.", "method": "According to the package insert, 7.2 mL of water for injection was added to a vial containing 150 mg of trastuzumab (Roche Pharma) using a sterilized injection syringe. The resulting 21 mg/mL solution was kept in a freezer. At the time of use, the frozen solution was diluted 10.5-fold with 4.75 mL of physiological saline at a trastuzumab concentration of 2.0 mg/mL, to yield a liquid for administration at a trastuzumab dose of 20 mg/kg/day. The test liquids of Compound-I were prepared to enable administration at doses of 16 and 24 mg/kg/day.\nCompound-I and trastuzumab were administered once a day from Day 1 to 14. […] FIGS. 17A and 17B and Table 20 show the results. In the medium/Compound I administration group, the test liquid was orally administered once a day for consecutive days. In the trastuzumab administration group, the test liquid was intraperitoneally administered once a day for consecutive days."}, "[2]": {"tested_on": "Human ovarian cancer cell line (A2780)", "test": "Potentiation of antitumor effect of doxorubicin, A2780 subcutaneous implant in nude mice (Test Example 6)", "format": "in vivo, BALB/cA Jcl-nu/nu mice", "details": "doxorubicin 7 mg/kg/day day 1, 8", "method": "In the groups receiving only Compound-I, the test liquid was prepared by diluting Compound-I with 0.5% HPMC to enable administration at a Compound-I dose of 16 mg/kg/day. […] FIG. 11 and Table 15 show the results."}}, "data": [{"molecule": "Herceptin: trastuzumab (Roche Pharma), antibody molecular target drug", "values": [{"measurement": "RTV^b) (mean ± SD)", "setting": "[1]", "value": "4.15 ± 0.42"}, {"measurement": "TGI^c) (%)", "setting": "[1]", "value": 41.4, "unit": "%"}]}, {"molecule": "COc1cccc2c1C(=O)c1c(O)c3c(c(O)c1C2=O)C[C@@](O)(C(=O)CO)C[C@@H]3O[C@H]1C[C@H](N)[C@H](O)[C@H](C)O1", "note": "[Doxorubicine, doxorubicin, reference compound]", "values": [{"measurement": "RTV day 15 Mean ± SD", "setting": "[2]", "value": "12.50 ± 3.19"}]}]}
